# Earlier results as cited in PubChem BioAssay AID1811 (Shanghai Institute of Organic Chemistry, 2009).
# The other results are listed elsewhere or left out. The source made the active and inactive calls. Unless stated, no cut-off for active and inactive is given here.
# System: 3-phosphoinositide dependent protein kinase-1
# Assay: PubChem AID 1811
# Details: PDB complex binding affinities from literature
compound,measurement,value
O=P(O)(O)OC1[C@H](O)[C@H](OP(=O)(O)O)C(OP(=O)(O)O)[C@H](OP(=O)(O)O)[C@H]1O (stereo partly specified),outcome,active
